Test results reported in ChEMBL document CHEMBL4732047, “New imidazopyridines with phosphodiesterase 4 and 7 inhibitory activity and their efficacy in animal models of inflammatory and autoimmune diseases” (Eur J Med Chem, 2021).

By UniProt entry, the sequences of proteins in these tests, tags left out. Where a name states a change or a piece, a line headed by the entry shows the natural chain unless it says otherwise.
UniProt Q9Y233: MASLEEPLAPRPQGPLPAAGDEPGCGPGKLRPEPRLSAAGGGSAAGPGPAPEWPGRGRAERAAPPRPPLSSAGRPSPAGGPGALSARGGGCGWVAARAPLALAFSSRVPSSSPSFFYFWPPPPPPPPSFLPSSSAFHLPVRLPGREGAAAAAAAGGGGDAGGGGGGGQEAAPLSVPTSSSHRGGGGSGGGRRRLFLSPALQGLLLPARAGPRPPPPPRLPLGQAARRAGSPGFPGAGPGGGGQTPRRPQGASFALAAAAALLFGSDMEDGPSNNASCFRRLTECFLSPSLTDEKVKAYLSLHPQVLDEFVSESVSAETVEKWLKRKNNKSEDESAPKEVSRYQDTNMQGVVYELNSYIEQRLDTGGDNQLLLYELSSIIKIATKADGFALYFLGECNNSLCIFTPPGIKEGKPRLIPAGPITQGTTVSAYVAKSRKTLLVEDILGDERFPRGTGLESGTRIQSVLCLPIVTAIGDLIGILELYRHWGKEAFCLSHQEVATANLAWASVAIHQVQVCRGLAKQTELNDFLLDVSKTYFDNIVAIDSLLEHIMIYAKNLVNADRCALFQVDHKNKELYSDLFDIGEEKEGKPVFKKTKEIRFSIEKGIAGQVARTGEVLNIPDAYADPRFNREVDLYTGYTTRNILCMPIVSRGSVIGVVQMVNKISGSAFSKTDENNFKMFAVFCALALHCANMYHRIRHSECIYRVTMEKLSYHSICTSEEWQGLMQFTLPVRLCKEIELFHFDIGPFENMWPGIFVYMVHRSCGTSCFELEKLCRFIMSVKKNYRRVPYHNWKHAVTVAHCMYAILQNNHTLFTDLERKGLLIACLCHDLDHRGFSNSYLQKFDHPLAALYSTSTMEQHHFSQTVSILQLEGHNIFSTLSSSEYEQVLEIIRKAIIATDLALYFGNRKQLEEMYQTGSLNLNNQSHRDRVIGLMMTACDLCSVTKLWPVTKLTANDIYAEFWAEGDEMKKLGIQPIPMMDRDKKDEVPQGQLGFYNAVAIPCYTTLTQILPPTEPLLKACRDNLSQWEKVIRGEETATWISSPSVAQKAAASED

Biological target: cAMP and cAMP-inhibited cGMP 3',5'-cyclic phosphodiesterase 10A (Homo sapiens, UniProt Q9Y233)
Assay: Inhibition of human recombinant PDE10A using cAMP as substrate incubated for 20 mins measured by Kinase Glo reagent based microplate reader assay

## COc1ccc(Cc2nccc3cc(OC)c(OC)cc23)cc1OC [PAPAVERINE]
  IC50: 38 nM
